Reference: patent US8329704B2, “Substituted pyrazinone derivatives for use in MCH-1 mediated diseases” (Janssen Pharmaceutica, N.V., priority 2005, dated 2012)

Protein sequences, listed by entry. Tags and fused reporters are not part of them.
UniProt Q99705, whole entry: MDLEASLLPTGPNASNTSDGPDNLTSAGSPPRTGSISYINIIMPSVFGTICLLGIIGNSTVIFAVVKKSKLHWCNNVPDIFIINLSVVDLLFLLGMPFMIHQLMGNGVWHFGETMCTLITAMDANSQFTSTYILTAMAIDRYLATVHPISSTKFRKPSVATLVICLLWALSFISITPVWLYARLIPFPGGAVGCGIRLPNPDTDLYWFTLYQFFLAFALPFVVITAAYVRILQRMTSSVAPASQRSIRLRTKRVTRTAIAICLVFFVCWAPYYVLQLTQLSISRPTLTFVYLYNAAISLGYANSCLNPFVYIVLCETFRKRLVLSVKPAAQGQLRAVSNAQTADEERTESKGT

molecular target: human MCH-1 receptor (Homo sapiens, UniProt Q99705); assay: Ca2+ mobilization experiment for the MCH-1 receptor (FLIPR), inhibition of MCH-induced Ca2+ mobilization; details: CHO cells stably expressing human MCH-1 receptor, inhibition of MCH-induced Ca2+ response
Experimental: The interaction of the compounds of Formula (I) with MCH-1 receptors was assessed in in vitro transient calcium (Ca^2+) mobilization assays in the fluorimetric imaging plate reader (FLIPR) format (Sullivan et al. 1999, Methods Mol Biol 114:125-133). In general, the natural agonist (MCH) is incubated with cells expressing the MCH-1 receptor, which elicits a concentration-dependent transient mobilization of Ca^2+ from internal stores. The interaction of the test compounds with the receptor is assessed in competition experiments. Various concentrations of the test compound are added to the incubation mixture containing the receptor-expressing cells and a submaximal concentration of MCH. The test compound in proportion to its antagonist potency and its concentration inhibits MCH-induced Ca^2+ mobilization.
Chinese Hamster ovary cells (CHO) stably expressing the human MCH-1 receptor are grown in a 1:1 mixture of Dulbecco's Modified Eagles Medium (DMEM) and HAM's F12 medium including Glutamax™ (Invitrogen), supplemented with 10% heat-inactivated fetal bovine serum and 400 μg/ml geneticin.
Twenty-four hours before the experiment, MCH-1 receptor-expressing CHO cells are seeded in 20 μl (5,000 cells per well) into 384-well black wall, clear bottom microtiter plates (Costar). On the day of the experiment, 20 μl per well calcium assay kit containing 10 mM probenicide (Molecular Devices) is added. Cells are loaded for 90 min at 37° C. and 5% CO2 in a cell culture incubator. After loading, 20 μl of serial dilutions of the test compound are added and cells are further incubated for 20 min at room temperature in the dark. After 20 min, 20 μl of a submaximal MCH concentration is added and changes in intracellular calcium are recorded directly in a FLIPR III apparatus (Molecular devices).
Data from assays in the presence of compound were calculated as a percentage of total Ca^2+-responses measured in the absence of test compound. Inhibition curves, plotting percent of total Ca^2+-responses versus the log value of the concentration of the test compound, were automatically generated, and sigmoidal inhibition curves were fitted using non-linear regression. The pIC50 values of test compounds were derived from individual curves.

| SMILES | MCH-1 pIC50 |
| --- | --- |
| COc1cc(-n2ccnc(NCC3CCc4ccccc4O3)c2=O)ccc1OCCN1CCCC1 (stereo not shown) | 6.4 |
| COc1cc(-n2ccnc(NCC3Oc4ccccc4O3)c2=O)ccc1OCCN1CCCC1 | 7.0 |
| O=c1c(NCCOc2ccccc2)nccn1-c1ccc(NCCN2CCCC2)nc1 | 6.5 |
| COc1cc(-n2ccnc(NC3Cc4ccccc4C3)c2=O)ccc1OCCN1CCCC1 | 6.5 |
| COc1cc(-n2ccnc(NCCc3cccnc3)c2=O)ccc1OCCN1CCCC1 | 6.8 |
| COc1cc(-n2ccnc(Sc3ccc4ccccc4c3)c2=O)ccc1OCCN1CCCC1 | 6.5 |
| O=c1c(NCCc2ccc(F)cc2)nccn1-c1ccc(OC2CCNC2)c(Cl)c1 (stereo not shown) | 7.3 |
| COc1cc(-n2ccnc(NCCOc3ccccc3Cl)c2=O)ccc1OCCN(C)C(C)=O | 6.5 |
| O=c1c(NCCOc2ccccc2)nccn1-c1ccc2nc(CN3CCCC3)ccc2c1 | 7.4 |
| CN1CCN(c2ccc(-n3ccnc(NCCc4ccc(F)cc4)c3=O)cc2Cl)CC1 | 7.5 |
| COc1cc(-n2ccnc(NCCOc3ccccc3)c2=O)ccc1OCC(C)N(C)C (stereo not shown) | 7.2 |
| COc1cc(-n2ccnc(NCCOc3ccccn3)c2=O)ccc1OCCN1CCCC1 | 6.6 |
| O=c1c(NCCOc2ccccc2)nccn1-c1ccc(N2CCC(O)CC2)nc1 | 6.4 |
| COc1cc(-n2ccnc(SCCc3ccccn3)c2=O)ccc1OCCN1CCCC1 | 7.1 |
| COc1cc(-n2ccnc(N3CCc4ccccc4C3)c2=O)ccc1OCCN1CCCC1 | 5.1 |
| COc1cc(-n2ccnc(Nc3ccc(-c4ccccc4)cc3)c2=O)ccc1OCCN1CCCC1 | 6.6 |
| O=c1c(NCCc2ccccn2)nccn1-c1ccc(OCCN2CCC(F)CC2)c(Cl)c1 | 7.1 |
| COc1cc(-n2ccnc(NCCc3ccccn3)c2=O)ccc1OCCN1CCCC1 | 6.8 |
| COc1cc(-n2ccnc(NCCc3ccccc3)c2=O)ccc1OCC(C)N1CCCC1 (stereo not shown) | 7.4 |
| O=c1c(NCCOc2ccc(F)cc2)nccn1-c1ccc(OC2CCNC2)c(Cl)c1 (stereo not shown) | 6.8 |
| COc1cc(-n2ccnc(SCCc3ccc(Cl)cc3)c2=O)ccc1OCCN1CCCC1 | 7.2 |
| COc1cc(-n2ccnc(NCCc3ccccc3)c2=O)ccc1OCC(C)N1CCOCC1 (stereo not shown) | 7.3 |
| O=c1c(NCCc2ccc(F)cc2)nccn1-c1ccc(OCCN2CCC(O)C2)c(Cl)c1 (stereo not shown) | 7.5 |
| COc1cc(-n2ccnc(NCCOc3ccccc3)c2=O)ccc1OC(C)CN(C)C (stereo not shown) | 7.2 |
| COc1cc(-n2ccnc(NCCc3ccccc3Cl)c2=O)ccc1OCCN(C)C(C)=O | 6.7 |
| CNC1CCN(c2ccc(-n3ccnc(NCCc4ccccn4)c3=O)cc2OC)C1 (stereo not shown) | 6.5 |
| COc1cc(-n2ccnc(NCCCOc3ccccn3)c2=O)ccc1OCCN1CCCC1 | 7.2 |
| O=c1c(NCCOc2ccc(F)cc2)nccn1-c1ccc(OCCN2CCC(O)C2)c(Cl)c1 (stereo not shown) | 6.5 |
